From US8779109B2, “Growth hormones with prolonged in-vivo efficacy” (Novo Nordisk Health Care AG, priority 2010, dated 2014)

Experiment: Pharmacokinetics in Sprague Dawley rats after i.v. and s.c. single dose
Settings: rat, i.v. single dose 60 nmol/kg

## 2-(C20diacid-Trx-γGlu-Glu-OEG-OEG-Gly-Glycin amid)-ethyl-N^α1-hGH [Compound 43.0, 2-(C20diacid-Trx-γGlu-Glu-OEG-OEG-Gly-Glycin amid)-ethyl-N^α1-hGH [Q84C, Y143C]]
  MRT: 9.8 h
  T1/2: 7.2 h
